Measured values as given in patent US8546526.

Amino acid sequences for entries named in this document (tags omitted). Residues count along the entry.
UniProt P06756, 31-1048, chain 1 of 2: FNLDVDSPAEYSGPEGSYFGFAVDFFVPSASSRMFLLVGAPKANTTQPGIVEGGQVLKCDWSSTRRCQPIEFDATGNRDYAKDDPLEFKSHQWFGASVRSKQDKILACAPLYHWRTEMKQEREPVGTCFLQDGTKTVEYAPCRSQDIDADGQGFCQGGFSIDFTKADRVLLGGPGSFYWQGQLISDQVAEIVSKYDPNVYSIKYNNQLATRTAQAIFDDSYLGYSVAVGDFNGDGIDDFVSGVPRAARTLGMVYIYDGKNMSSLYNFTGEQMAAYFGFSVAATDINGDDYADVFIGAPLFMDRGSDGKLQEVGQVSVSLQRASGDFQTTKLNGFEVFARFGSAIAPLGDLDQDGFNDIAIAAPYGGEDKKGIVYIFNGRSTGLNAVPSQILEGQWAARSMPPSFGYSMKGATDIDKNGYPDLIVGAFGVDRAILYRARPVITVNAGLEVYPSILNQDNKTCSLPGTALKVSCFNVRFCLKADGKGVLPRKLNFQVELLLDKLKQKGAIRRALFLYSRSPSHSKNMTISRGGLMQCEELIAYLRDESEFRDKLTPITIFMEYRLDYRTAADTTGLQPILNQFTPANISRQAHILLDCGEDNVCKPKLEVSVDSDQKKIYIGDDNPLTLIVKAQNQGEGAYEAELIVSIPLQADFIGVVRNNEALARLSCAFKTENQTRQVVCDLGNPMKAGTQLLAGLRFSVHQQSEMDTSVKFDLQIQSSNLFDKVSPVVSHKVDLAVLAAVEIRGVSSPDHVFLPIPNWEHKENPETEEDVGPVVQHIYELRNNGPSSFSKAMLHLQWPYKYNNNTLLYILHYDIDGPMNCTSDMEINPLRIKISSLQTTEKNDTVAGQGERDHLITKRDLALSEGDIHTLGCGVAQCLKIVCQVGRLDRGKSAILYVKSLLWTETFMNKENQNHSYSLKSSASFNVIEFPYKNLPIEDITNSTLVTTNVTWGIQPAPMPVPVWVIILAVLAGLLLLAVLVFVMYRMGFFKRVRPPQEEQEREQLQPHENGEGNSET

Biological target: integrin αvβ3 on K562 cells (Kαvβ3) (UniProt P06756)
Experiment: cell-based or functional assay

c(RGDfV) (peptide) was tested. Which IC50 of inhibition of Kαvβ3 cell adhesion to vitronectin (representative curve, FIG. 2 panel A) did it give?
Its IC50 of inhibition of Kαvβ3 cell adhesion to vitronectin (representative curve, FIG. 2 panel A) is 0.68 µM.
